scFv variants of Ab-14 (light chain) against a SARS-CoV-2 spike peptide

Binding partner: SARS-CoV-2 spike HR2 peptide, sequence PDVDLGDISGINAS.

Parent scFv Ab-14: VH joined to VL by a 15-residue (Gly4Ser)3 linker. Changes lie in the light chain CDRs alone.
VH: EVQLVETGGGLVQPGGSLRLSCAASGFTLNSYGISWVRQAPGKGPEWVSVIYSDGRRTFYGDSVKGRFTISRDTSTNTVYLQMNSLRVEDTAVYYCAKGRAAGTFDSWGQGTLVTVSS
VL: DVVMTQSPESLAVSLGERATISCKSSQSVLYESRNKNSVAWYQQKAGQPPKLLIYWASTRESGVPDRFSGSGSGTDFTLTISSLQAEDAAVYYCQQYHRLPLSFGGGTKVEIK

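Phage display of a naive human antibody library on the peptide gave the parent. AAYL50 was designed without a model: most single CDR substitutions and a random sample of double and triple ones. The assay is AlphaSeq: two haploid yeast populations carry antibody and antigen on their surface. Mating (16 h, 30 °C) was followed by selection of diploids and sequencing of their barcodes. Each replicate has its own calibration line, from reference interactions of the BCL2 family. Mating was done three times.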

Positions count from residue 1 of the parent VL; K36G puts G in place of K. All variants listed here change K36 of the VL, counted from its first residue. Affinities are written as log10 Kd with Kd in nM; a lower number is a better binder. Replicates are averaged; those with no signal do not enter the mean. A pair that was not seen in any replicate is written "no signal"; this usually means weak binding, but a binder can also be missed. Three control strains display no target. For library AAYL50, 18% of the pairings with them gave a signal, with a median of 4.19 and one signal in twenty below 2.99, so weak values seen in few replicates may be background. The control count says in how many pairings with the empty strains this scFv gave a signal. Parent in this assay: reference entry 0.65, copy in this library 1.68.

K36G+S58H+L102N: 1.30 (3 of 3 replicates; controls 0 of 9).
Y31R+K36M+S58K: no signal (0 of 3 replicates; controls 0 of 9).
K24M+K36V+T59C: 1.73 (3 of 3 replicates; controls 0 of 9).
E32T+K36Q+A40D: no signal (0 of 3 replicates; controls 1 of 9).
E32H+R34Q+K36C: 3.18 (3 of 3 replicates; controls 0 of 9).
Q27R+K36A+E61R: 2.51 (3 of 3 replicates; controls 0 of 9).
K36Q+Y97N+L102W: no signal (0 of 3 replicates; controls 3 of 9).
Q27E+K36C+L102Y: 2.04 (3 of 3 replicates; controls 4 of 9).
S33A+K36H+S58Y: 1.98 (3 of 3 replicates; controls 5 of 9).
S25F+K36S: -0.15 (3 of 3 replicates; controls 2 of 9).
S25Q+K36G+W56T: 0.99 (3 of 3 replicates; controls 3 of 9).
K36P+S58W+H98P: no signal (0 of 3 replicates; controls 0 of 9).
K24L+E32R+K36R: 3.63 (3 of 3 replicates; controls 0 of 9).
Y31S+K36C+P101N: 1.97 (3 of 3 replicates; controls 0 of 9).
K36H+A57Q: 4.09 (1 of 3 replicates; controls 1 of 9).
K36Y+A57R: 3.14 (2 of 3 replicates; controls 1 of 9).
K36L+E61T+S62W: 2.49 (3 of 3 replicates; controls 1 of 9).
K36D+R60N: no signal (0 of 3 replicates; controls 1 of 9).
R34G+N35D+K36V: 0.55 (3 of 3 replicates; controls 2 of 9).
V29N+N35S+K36V: 3.47 (2 of 3 replicates; controls 1 of 9).
K36H+Q96N+L100W: 5.94 (2 of 3 replicates; controls 7 of 9).
S26V+K36S+V39H: 6.23 (1 of 3 replicates; controls 4 of 9).
S33E+K36T: 0.40 (3 of 3 replicates; controls 2 of 9).
K36T+Q95N+Q96H: no signal (0 of 3 replicates; controls 2 of 9).
E32S+R34C+K36F: 2.99 (1 of 3 replicates; controls 1 of 9).
S26I+K36I+S103D: 1.90 (1 of 3 replicates; controls 0 of 9).
V29C+K36P+R60M: 3.79 (1 of 3 replicates; controls 4 of 9).
K36R+T59L: 1.11 (3 of 3 replicates; controls 1 of 9).

The last 5 entries again:

| changes | log10 Kd (nM), mean | replicates with signal | control signals |
|---|---|---|---|
| K36T+Q95N+Q96H | no signal | 0/3 | 2/9 |
| E32S+R34C+K36F | 2.99 | 1/3 | 1/9 |
| S26I+K36I+S103D | 1.90 | 1/3 | 0/9 |
| V29C+K36P+R60M | 3.79 | 1/3 | 4/9 |
| K36R+T59L | 1.11 | 3/3 | 1/9 |

From the AlphaSeq antibody data of Engelhart et al. 2022 (doi:10.1038/s41597-022-01779-4), copy in the FLAb collection.